Earlier results as cited in patent publication US8815249B2 (priority 1999, dated 2014).

Target: HER-2/neu (Homo sapiens, UniProt P04626)
Conditions: in vivo; cited from earlier work

Herceptin
1 year survival rate: 78% | duration of response (median): 9.1 | median survival: 25.1 mo | rate of objective response: 50% | reduction in the risk of death: 20% | time to disease progression: 7.4 mo
